According to ChEMBL document CHEMBL1821552, “Synthesis and in vitro evaluation of xylene linked carbamoyl bis-pyridinium monooximes as reactivators of organophosphorus (OP) inhibited electric eel acetylcholinesterase (AChE)” (2011):

Assay: Dissociation constant, pKa of the compound by spectrophotometric analysis

| SMILES | pKa |
| --- | --- |
| NC(=O)c1cc[n+](Cc2ccc(C[n+]3cccc(/C=N/O)c3)cc2)cc1.[Br-].[Br-] | 8.77 |
| NC(=O)c1cc[n+](Cc2ccccc2C[n+]2ccccc2/C=N/O)cc1.[Br-].[Br-] | 7.77 |
| NC(=O)c1cc[n+](Cc2cccc(C[n+]3cccc(/C=N/O)c3)c2)cc1.[Br-].[Br-] | 8.75 |
| NC(=O)c1ccc[n+](Cc2ccccc2C[n+]2ccccc2/C=N/O)c1.[Br-].[Br-] | 7.79 |
| NC(=O)c1cc[n+](Cc2ccccc2C[n+]2cccc(/C=N/O)c2)cc1.[Br-].[Br-] | 8.59 |
| NC(=O)c1cc[n+](Cc2ccccc2C[n+]2ccc(/C=N/O)cc2)cc1.[Br-].[Br-] | 7.94 |
| NC(=O)c1ccc[n+](Cc2cccc(C[n+]3ccc(/C=N/O)cc3)c2)c1.[Br-].[Br-] | 7.95 |
| NC(=O)c1ccc[n+](Cc2ccccc2C[n+]2ccc(/C=N/O)cc2)c1.[Br-].[Br-] | 7.85 |
| NC(=O)c1cc[n+](Cc2ccc(C[n+]3ccc(/C=N/O)cc3)cc2)cc1.[Br-].[Br-] | 8.09 |
| NC(=O)c1cc[n+](Cc2ccc(C[n+]3ccccc3/C=N/O)cc2)cc1.[Br-].[Br-] | 7.76 |
| NC(=O)c1ccc[n+](Cc2cccc(C[n+]3cccc(/C=N/O)c3)c2)c1.[Br-].[Br-] | 8.76 |
| NC(=O)c1ccc[n+](Cc2ccc(C[n+]3ccccc3/C=N/O)cc2)c1.[Br-].[Br-] | 7.72 |
| NC(=O)c1ccc[n+](Cc2ccccc2C[n+]2cccc(/C=N/O)c2)c1.[Br-].[Br-] | 8.69 |
| NC(=O)c1ccc[n+](Cc2cccc(C[n+]3ccccc3/C=N/O)c2)c1.[Br-].[Br-] | 7.75 |
| NC(=O)c1cc[n+](Cc2cccc(C[n+]3ccccc3/C=N/O)c2)cc1.[Br-].[Br-] | 7.69 |
| NC(=O)c1ccc[n+](Cc2ccc(C[n+]3cccc(/C=N/O)c3)cc2)c1.[Br-].[Br-] | 8.79 |
| NC(=O)c1cc[n+](Cc2cccc(C[n+]3ccc(/C=N/O)cc3)c2)cc1.[Br-].[Br-] | 8.01 |
| NC(=O)c1ccc[n+](Cc2ccc(C[n+]3ccc(/C=N/O)cc3)cc2)c1.[Br-].[Br-] | 8.15 |
